Literature values in PMC8456950, “Structure‐Guided Design of G‐Protein‐Coupled Receptor Polypharmacology” (Angewandte Chemie (International Ed. in English), 2021).

Settings: CNS active drugs for comparison; cited from earlier work

## Cc1nc2n(c(=O)c1CCN1CCC(c3noc4cc(F)ccc34)CC1)CCCC2 [risperidone]
  brain-to-plasma ratio: 0.95
